Data on 100 molecules can be found in PubChem BioAssay AID624126 (The Scripps Research Institute Molecular Screening Center, 2012).

The chains behind the UniProt entries cited, without tags or fusion partners.
UniProt P08173, whole entry, looked up: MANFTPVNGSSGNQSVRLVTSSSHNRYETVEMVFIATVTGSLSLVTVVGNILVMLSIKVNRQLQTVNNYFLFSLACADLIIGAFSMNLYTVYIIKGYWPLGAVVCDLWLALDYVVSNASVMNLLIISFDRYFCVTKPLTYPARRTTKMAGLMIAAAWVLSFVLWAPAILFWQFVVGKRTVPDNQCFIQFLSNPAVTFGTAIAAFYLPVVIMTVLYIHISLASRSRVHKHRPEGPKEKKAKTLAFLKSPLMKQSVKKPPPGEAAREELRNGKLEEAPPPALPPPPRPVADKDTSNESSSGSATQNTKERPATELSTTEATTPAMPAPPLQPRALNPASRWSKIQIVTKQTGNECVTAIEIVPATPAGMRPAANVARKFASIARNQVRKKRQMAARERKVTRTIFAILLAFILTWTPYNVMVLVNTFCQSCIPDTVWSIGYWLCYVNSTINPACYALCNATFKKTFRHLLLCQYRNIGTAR

The structures appear in SMILES notation. The list shows a part of the results, in another mix than the full data. Calls of active or inactive are those of the source.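 How the source made its calls: active means activation above its plate's cutoff, the mean activation of sample wells plus 3 SD; inactive means the rest.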

The test concerns the target Muscarinic acetylcholine receptor M4 (Homo sapiens) (UniProt P08173). Kind of test: CHRM4 PAMs potentiating acetylcholine calcium signal – CHO-K1 cells, Fluo-8 calcium fluorescence, primary screen (AID 624126). The following applies: CHO-K1 hM4/Gqi5, Fluo-8 calcium fluorescence, ACh EC20; at 3 µM; stronger effect = higher value; 0% = ACh EC20, 100% = maximal ACh.
As to `C/C=C1/CC(C)C(C)(O)C(=O)OCC2CCN3CCC(OC1=O)C23` (stereo not given), the activation is inactive: -17.8%.

For `CC1CCNP(=O)(N(CCCl)CCCl)O1` (stereo not given), the activation is inactive: 3.07%.

In the case of `CCOC(=O)Nc1ccc([As](=O)(O)O)c(O)c1`, the activation is inactive: 11.7%.

Consider `O=C(O)C(O)c1ccc(N(CCCl)CCCl)cc1` (stereo not given), for which the activation was inactive: -3.94%.

As for `Cc1cc(SC(NC(=O)c2ccccc2)C(Cl)(Cl)Cl)nc(C(C)C)n1` (stereo not given), the activation is active: 25%.

In the case of `COP(=O)(OC)N1CC1c1ccccc1` (stereo not given), the activation is inactive: -1.12%.

As to `CCOC(=O)Nc1cccc([As](=O)(O)O)c1`, the activation is inactive: -4.61%.

Regarding `O=[N+]([O-])c1ccc(Nc2ccc(Oc3ccc([N+](=O)[O-])cc3[N+](=O)[O-])cc2)c([N+](=O)[O-])c1`, the activation was inactive: -0.81%.

As to `O=P(Nc1ccccn1)(c1cccc2ccccc12)c1cccc2ccccc12`, the activation is inactive: -0.35%.

As to `Cc1cc(SC(NC=O)C(Cl)(Cl)Cl)ncn1` (stereo not given), the activation is inactive: 18.3%.

For `COC(=O)C1(C)COP(=O)(N2CCCC2)OC1` (stereo not given), the activation is inactive: 6.35%.

Turning to `COP1(=S)c2c(C)nn(CCC#N)c2N=C(c2ccc(F)cc2)N1C` (stereo not given), the activation was inactive: -1.97%.

With `O=C(Nc1ccncc1[N+](=O)[O-])c1ccc([N+](=O)[O-])cc1[N+](=O)[O-]`, the activation was inactive: 1.02%.

In the case of `O=C(COc1ccccc1)OC1CN2CCC1CC2` (stereo not given), the activation is inactive: -12%.

`O=C(O)C(=O)c1ccc(N(CCCl)CCCl)cc1`: the activation was inactive: 0.65%.

As for `CCOC(=O)c1ccc(NC(=O)C(C)(CCl)SC)cc1` (stereo not given), the activation is inactive: -5.73%.

Regarding `CSc1ccc(Nc2c([N+](=O)[O-])cc([N+](=O)[O-])cc2[N+](=O)[O-])cc1`, the activation was inactive: -3.85%.

`O=C(OC1CN2CCC1CC2)c1cccc([N+](=O)[O-])c1` (stereo not given): the activation is inactive: -7.73%.

Take `CCC(C)N(CC(C)C)C(=S)SC(NC(C)=O)C(Cl)(Cl)Cl` (stereo not given): the activation is inactive: 1.5%.

`Cc1cc(=O)[nH]c(N[N+](=O)[O-])n1`: the activation was inactive: 9.02%.

Turning to `O=C(OC1CN2CCC1CC2)C12CC3CC(CC(C3)C1)C2` (stereo not given), the activation was inactive: -16.6%.

For the molecule `Cc1c2c(nc3ccccc13)SC(C(Cl)Cl)C2` (stereo not given), the activation was inactive: 4.17%.

With `COc1cc(I)ccc1[As](=O)(O)O`, the activation is inactive: 8.02%.

For `COc1ccc2nc(NP(=O)(c3ccccc3)c3ccccc3)sc2c1`, the activation is inactive: -6.25%.

With `O=P1(N(CCCl)CCCl)OCCCN1CCCl` (stereo not given), the activation was inactive: -3.31%.

As to `O=P1(N(CCCl)CCCl)Nc2ccccc2N1`, the activation was inactive: 4.12%.

Consider `COc1ccc(N/C(=N/P(=O)(N2CCOCC2)N2CCOCC2)N2CCOCC2)cc1`, for which the activation is inactive: 2.7%.

For `O=[N+]([O-])c1cc(Oc2ccc([N+](=O)[O-])cc2C(F)(F)F)cc([N+](=O)[O-])c1`, the activation is inactive: 3.01%.

`O=[N+]([O-])c1ccc(-c2cc([N+](=O)[O-])c(O)c([N+](=O)[O-])c2)cc1`: the activation was inactive: 7.75%.

Turning to `C[As](=O)(O)c1cccc(C(=O)O)c1`, the activation was inactive: 3.25%.

As to `O=[As](O)(c1ccc(O)cc1)c1ccccc1O`, the activation is inactive: 13.7%.

In the case of `Cc1ccc2nc3c(c(C)c2c1)CC(C(Cl)Cl)S3` (stereo not given), the activation was inactive: 10.5%.

For the molecule `CC(Cc1ccc(O)cc1)NCC(O)c1cc(O)cc(O)c1` (stereo not given), the activation is inactive: 2.9%.

`[N-]=[N+]=NC1CCCCC1NC(=O)c1cc([N+](=O)[O-])cc([N+](=O)[O-])c1` (stereo not given): the activation is inactive: 0.57%.

As for `Cc1ccc(OP(=O)(Nc2ccc([N+](=O)[O-])cn2)Oc2ccc(C)cc2)cc1`, the activation is inactive: 6.59%.

Take `COC(=O)C1(C)COP(=O)(N2CCCCCC2)OC1` (stereo not given): the activation was inactive: 3.67%.

As for `CC(C)c1ccc(OP(=O)(Nc2ccccn2)Oc2ccccc2F)cc1` (stereo not given), the activation was inactive: -11.5%.

Turning to `ClCCSc1nnc(-c2cccnc2)o1`, the activation is inactive: 16.7%.

Turning to `O=[N+]([O-])c1cc([N+](=O)[O-])c(-c2ccn[nH]2)s1`, the activation is inactive: 4.7%.

Regarding `CC(C)NC(=O)NP(=O)(Oc1ccccc1)Oc1ccccc1`, the activation was inactive: 2.79%.

For the molecule `O=C(OC1CN2CCC1CC2)c1cccc2[nH]cnc12` (stereo not given), the activation is inactive: 1.15%.

`CCN(CC)C(=S)SC(NC=O)C(Cl)(Cl)Cl` (stereo not given): the activation is inactive: -1.84%.

As to `CS(=O)(=O)c1cc([N+](=O)[O-])c2no[n+]([O-])c2c1`, the activation was inactive: 18.8%.

Consider `O=P(Nc1nccs1)(Oc1ccccc1)Oc1ccccc1`, for which the activation is inactive: 4.61%.

As for `O=P(Nc1nccs1)(c1ccccc1)c1nc2ccccc2s1` (stereo not given), the activation is inactive: 3.8%.

As for `CCOP1(=S)c2c(C)nn(CCC#N)c2N=C(c2ccccc2F)N1C` (stereo not given), the activation was inactive: -7.76%.

Turning to `Nc1ccccc1[As](=O)(O)c1ccccc1`, the activation is inactive: 6.18%.

`O=C(O)COc1ccc([As](=O)(O)O)cc1[N+](=O)[O-]`: the activation is inactive: 1.87%.

Consider `NC(=O)Nc1ccc([As](=O)(O)O)cc1`, for which the activation was inactive: 1.13%.

Consider `CN(C(=O)Cc1ccc(Cl)c(Cl)c1)[C@H]1CC[C@@]2(CCCO2)C[C@@H]1N1CCCC1`, for which the activation is inactive: -0.05%.

For `O=[N+]([O-])c1ccc2c(c1)nnn2O`, the activation is inactive: 7.43%.

On to `CN(C)C(=O)c1cc([N+](=O)[O-])cc2c1-c1c(cc([N+](=O)[O-])cc1[N+](=O)[O-])C2=O`, for which the activation is inactive: -9.45%.

Consider `CN(C(=O)Cc1ccccc1)[C@@H]1CC[C@]2(CCCO2)C[C@H]1N1CCCC1`, for which the activation was inactive: -5.93%.

On to `CCOP1(=S)c2c(C)nn(CCC#N)c2N=C(c2ccc(F)cc2)N1C` (stereo not given), for which the activation is inactive: 2.18%.

`N#CCCN(C(=O)COC(=O)C(O)(c1ccccc1)c1ccccc1)c1ccc(F)cc1`: the activation was inactive: -2.19%.

As for `CS(=O)(=O)c1ccc(Cl)c(NC(=O)COC(=O)C(O)(c2ccccc2)c2ccccc2)c1`, the activation was inactive: -9.56%.

`O=[As](O)(O)c1cccnc1`: the activation was inactive: -1.72%.

In the case of `O=C(OC1CN2CCC1CC2)c1ccc(Cl)cc1` (stereo not given), the activation is inactive: -12.3%.

In the case of `Cc1cccc(OCC(=O)OC2CN3CCC2CC3)c1` (stereo not given), the activation was inactive: 3.35%.

For `O=[As](O)(c1cccc(O)c1)c1cccc(O)c1`, the activation was inactive: 2.6%.

With `C[C@H]1C(=O)O[C@@H]2CCN3CC=C(COC(=O)[C@](C)(O)[C@]1(C)O)[C@H]23`, the activation is inactive: 5.14%.

Consider `CCCOP(=S)(Nc1nc(N)cc(=O)[nH]1)OCCC`, for which the activation is inactive: 0.66%.

In the case of `Nc1cccc2c([As](=O)(O)O)cccc12`, the activation was inactive: -5.61%.

As for `Cc1ccc(NCCc2c([N+](=O)[O-])cc([N+](=O)[O-])cc2[N+](=O)[O-])cc1`, the activation is inactive: -0.12%.

`CCOP(=O)(Nc1cccc2ccccc12)OCC`: the activation is inactive: 4.41%.

As to `COc1cc(C2NCCC3(OCCO3)C2(C)C)cc(OC)c1OC` (stereo not given), the activation was inactive: 12.6%.

For `CCOP(=O)(Nc1ccc(C)cn1)OCC`, the activation was inactive: 2.77%.

Take `CN(CCCl)Cc1cc(Cl)c(NC2=NCCN2)c(Cl)c1`: the activation is inactive: -0.63%.

For the molecule `CCOP(=O)(NC(=NC(C)c1ccccc1)NC(C)c1ccccc1)OCC` (stereo not given), the activation is inactive: -2.06%.

In the case of `O=P1(Nc2ccccn2)COc2ccccc2OC1`, the activation was inactive: -0.82%.

With `CCC1=CC2Cc3nc4ccc(Cl)cc4c(N)c3C(C1)C2` (stereo not given), the activation is inactive: -15.9%.

Turning to `CC(C)(C)C(=O)NC(Sc1ncccn1)C(Cl)(Cl)Cl` (stereo not given), the activation is inactive: 10.9%.

As to `O=P1(N(CCCl)CCCl)NCCC(C(F)(F)F)O1` (stereo not given), the activation is inactive: -3.46%.

Turning to `Clc1n[nH]nc1-c1nn[nH][15n]1`, the activation was inactive: 3.92%.

For `COc1ccccc1CNC(=O)COC(=O)C(O)(c1ccccc1)c1ccccc1`, the activation is inactive: -2.57%.

For the molecule `CC1(CBr)Cn2c(nc3ccccc3c2=O)S1` (stereo not given), the activation was inactive: 3.13%.

Turning to `CC(C)/C=N\N=C(\N)N[N+](=O)[O-]`, the activation was inactive: 1.2%.

As to `CN(C(=O)Cc1ccc(Cl)c(Cl)c1)[C@@H]1CCCC[C@H]1N1CCCC1`, the activation was inactive: -6.91%.

As for `CC1CCC(C(C)C)C(OP(=O)(Nc2ccccn2)c2ccccc2)C1` (stereo not given), the activation is inactive: -7.47%.

In the case of `Cc1ccc(C(=O)OC2CN3CCC2CC3)cc1` (stereo not given), the activation was inactive: -4.19%.

`Cc1nn(-c2ccccc2)c2c1P(=O)(N1CCOCC1)N(C)C(c1ccccc1)=N2` (stereo not given): the activation was inactive: 13.5%.

On to `CCCC1OP(=O)(Nc2ccccc2)OCC1CC` (stereo not given), for which the activation was inactive: 3.53%.

For the molecule `O=C(/C=C/c1ccccc1)OC1CN2CCC1CC2` (stereo not given), the activation is inactive: 2.12%.

On to `O=P1(Nc2ncccn2)COc2ccccc2OC1`, for which the activation is inactive: -0.01%.

With `Cc1ccc(S(=O)(=O)N(CCCN)CCCc2c(C)nc(N)[nH]c2=O)cc1`, the activation was inactive: 1.99%.

With `O=[As](O)(c1cccs1)c1cccs1`, the activation is inactive: 0.31%.

As for `Cc1ccc(OCC(=O)OC2CN3CCC2CC3)cc1` (stereo not given), the activation was inactive: -8.29%.

Take `O=P1(Nc2ccc(Br)cn2)COc2ccccc2OC1`: the activation was inactive: -6.79%.

As to `NS(=O)(=O)c1cccc(NC(=O)COC(=O)C(O)(c2ccccc2)c2ccccc2)c1`, the activation was inactive: 4.16%.

On to `Nc1cccc([As](=O)(O)c2ccccc2)c1`, for which the activation was inactive: -17.8%.

Regarding `COc1ccc(N)c([N+](=O)[O-])c1[N+](=O)[O-]`, the activation is inactive: 4.13%.

Consider `Nc1ccc(CCCCOc2ccccc2)cc1`, for which the activation is inactive: 13.7%.

Turning to `O=P(Nc1ccccn1)(c1ccc(Br)cc1)c1ccc(Br)cc1`, the activation is inactive: 5.81%.

Take `C[C@H]1OP(=O)(Oc2ccccc2)[C@H](O)[C@H](O)[C@H]1N=[N+]=[N-]` (stereo not given in full): the activation was inactive: -2.55%.

As for `O=P(Nc1nc2ccccc2s1)(c1ccccc1)c1ccccc1`, the activation is inactive: -16.5%.

With `O=[N+]([O-])c1ccc(O)c(/C=N/Nc2ccc([N+](=O)[O-])cc2[N+](=O)[O-])c1`, the activation was inactive: 0.14%.

Turning to `O=[N+]([O-])c1ncn(CCn2cnc([N+](=O)[O-])n2)n1`, the activation is inactive: -3.7%.

For the molecule `CC(=O)NC(SC(=S)N(C)C)C(Cl)(Cl)Cl` (stereo not given), the activation is inactive: 12.9%.

As to `O=[As](O)(c1ccccc1)c1ccc(O)cc1`, the activation is inactive: -6.09%.

Turning to `C(Cc1nn[nH]n1)Cc1nn[nH]n1`, the activation is inactive: 1.73%.
